Laboratory results taken from US4876260A, “Oxathiolanes” (State of Israel, Israel Institute of Biological Research, priority 1988, dated 1989).
“And” between values parts separate entries of the source, which are not always exact repeats. Equal values may be shown once.

Chains of the proteins cited; added tags and fusions are not shown. Lines headed by an entry give the natural chain unless they say otherwise; changes in a name come on top.
UniProt P10980, whole entry: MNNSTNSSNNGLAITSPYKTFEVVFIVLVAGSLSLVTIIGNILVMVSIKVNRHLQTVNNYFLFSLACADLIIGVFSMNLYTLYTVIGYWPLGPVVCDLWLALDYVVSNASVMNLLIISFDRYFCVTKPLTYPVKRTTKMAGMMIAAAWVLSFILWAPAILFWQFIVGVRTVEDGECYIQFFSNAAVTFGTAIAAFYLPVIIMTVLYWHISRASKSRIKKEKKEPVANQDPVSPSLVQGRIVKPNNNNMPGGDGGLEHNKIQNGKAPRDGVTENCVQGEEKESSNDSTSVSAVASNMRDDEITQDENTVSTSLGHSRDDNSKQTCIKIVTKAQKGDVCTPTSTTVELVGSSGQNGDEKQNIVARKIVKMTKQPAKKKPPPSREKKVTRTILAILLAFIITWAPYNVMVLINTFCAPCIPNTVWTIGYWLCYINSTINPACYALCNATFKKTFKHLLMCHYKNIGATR
UniProt P08482: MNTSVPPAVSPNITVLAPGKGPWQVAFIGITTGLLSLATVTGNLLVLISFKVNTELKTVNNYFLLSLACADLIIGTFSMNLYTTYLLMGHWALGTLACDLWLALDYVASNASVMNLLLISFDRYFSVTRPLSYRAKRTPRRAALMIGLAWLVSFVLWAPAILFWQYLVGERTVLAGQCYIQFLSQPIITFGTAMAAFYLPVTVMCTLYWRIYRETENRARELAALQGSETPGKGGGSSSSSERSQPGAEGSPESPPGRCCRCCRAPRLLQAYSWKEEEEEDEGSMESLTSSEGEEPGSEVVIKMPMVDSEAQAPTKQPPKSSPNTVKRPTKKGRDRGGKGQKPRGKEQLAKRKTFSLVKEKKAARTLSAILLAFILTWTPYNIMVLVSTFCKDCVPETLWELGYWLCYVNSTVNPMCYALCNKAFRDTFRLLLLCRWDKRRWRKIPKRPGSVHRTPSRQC

Legend:
[1] = biological target: muscarinic receptors (3H-QNB sites, M1 and M2, forebrain); type: binding, rat; conditions: for Ki: (b) forebrain
[2] = biological target: muscarinic receptors (3H-CD sites, M1 and M2, forebrain); assay: Displacement of 3H-cis-dioxolane (3H-CD, non-selective M1 and M2 agonist) from rat forebrain homogenate; type: binding
[3] = test system: muscarinic receptors (3H-QNB sites, cerebellum, mainly M2); assay: biochemical; type: binding, rat; conditions: FB=forebrain; CER=cerebellum
[4] = biological target: muscarinic receptors (3H-QNB sites, cerebellum, mainly M2) (Rattus norvegicus, UniProt P10980); assay: biochemical; type: binding; conditions: (b") cerebellum
[5] = biological target: M1 muscarinic receptors (3H-PZ sites, forebrain) (Rattus norvegicus, UniProt P08482); assay: Displacement of 3H-Pirenzepine (3H-PZ, selective M1 antagonist) from rat forebrain homogenate; type: binding
[6] = biological target: muscarinic receptors (3H-CD sites, frontal cortex); assay: Displacement of 3H-CD from rat frontal cortex homogenate; type: binding; conditions: (c') frontal cortex
[7] = biological target: muscarinic receptors (3H-QNB sites, frontal cortex); type: binding, rat; conditions: (b') frontal cortex

Row | Structure (SMILES) | Ki [1] [µM] | Ki ([2]; (c) forebrain) [µM] | order of M1 versus M2 selectivity, IC50 (FB):IC50 (CER) or IC50 (frontal cortex):IC50 (CER) [3] | Ki [4] | order of the ratios Ki(3H-PZ):Ki(3H-CD) [5] | order of the ratios Ki(3H-PZ):Ki(3H-QNB) ([5]; forebrain, among oxotremorine, McN-A-343, compound #3) | Ki [6] [µM] | M1 selectivity (in words) ([5]; from Tables 2A, 2B, 2C) | Ki [7] [µM] | Ki ([2]; Table 2B column (c'), footnote *forebrain) [µM] | times more potent in H-QNB displacement than its racemate (#4) [1] [times]
1 | C[C@@H]1O[C@]2(CS1)CN1CCC2CC1 (relative stereo) [compound 3, 2-methylspiro(1,3-oxathiolan-5,3')quinuclidine] | 24.7 ± 2.3 | 1.8 ± 0.1 | compound #4>compound #3>oxotremorine | 28 ± 2.9 µM | oxotremorine >McN-A-343>compound # 3 | McN-A-343 >compound #3>oxotremorine |  |  |  |  | 
2 | C[C@H]1O[C@]2(CS1)CN1CCC2CC1 (relative stereo) [compound 4, 2-methylspiro(1,3-oxathiolan-5,3')quinuclidine] | 7 ± 1 | 0.45 ± 0.18 | compound #4>compound #3>oxotremorine | 14.8 µM and 18.1 µM |  |  | 0.39 ± 0.21 | the most selective M1 agonist, being more selective than the prototype M1 agonist McN-A-343 | 7.1 ± 1.5 |  | 
3 | C[C@H]1O[C@]2(CS1)CN1CCC2CC1 (single isomer, unassigned) [compound 6, 2-methylspiro(1,3-oxathiolan-5,3')quinuclidine] | 47.4 ± 13.7 | 7.5 |  | 99.2 ± 26.8 µM |  |  |  |  |  | 7.94 | 
4 | C[C@H]1O[C@]2(CS1)CN1CCC2CC1 (single isomer, unassigned) [Compound #5, 2-methylspiro(1,3-oxathiolan-5,3')quinuclidine] | 3.7 ± 0.7 | 0.21 ± 0.06 |  | 7.9 ± 0.9 µM |  |  | 0.2 ± 0.04 |  |  |  | 2.2
